The target in this experiment is SpNanA (Streptococcus pneumoniae, UniProt P62575). Nature of the experiment: Sialidase inhibition assay (Example 4). Format: biochemical.

Protein sequences, listed by entry. Tags and fused reporters are not part of them. Residues count along the entry.
UniProt P62575, 54-1006: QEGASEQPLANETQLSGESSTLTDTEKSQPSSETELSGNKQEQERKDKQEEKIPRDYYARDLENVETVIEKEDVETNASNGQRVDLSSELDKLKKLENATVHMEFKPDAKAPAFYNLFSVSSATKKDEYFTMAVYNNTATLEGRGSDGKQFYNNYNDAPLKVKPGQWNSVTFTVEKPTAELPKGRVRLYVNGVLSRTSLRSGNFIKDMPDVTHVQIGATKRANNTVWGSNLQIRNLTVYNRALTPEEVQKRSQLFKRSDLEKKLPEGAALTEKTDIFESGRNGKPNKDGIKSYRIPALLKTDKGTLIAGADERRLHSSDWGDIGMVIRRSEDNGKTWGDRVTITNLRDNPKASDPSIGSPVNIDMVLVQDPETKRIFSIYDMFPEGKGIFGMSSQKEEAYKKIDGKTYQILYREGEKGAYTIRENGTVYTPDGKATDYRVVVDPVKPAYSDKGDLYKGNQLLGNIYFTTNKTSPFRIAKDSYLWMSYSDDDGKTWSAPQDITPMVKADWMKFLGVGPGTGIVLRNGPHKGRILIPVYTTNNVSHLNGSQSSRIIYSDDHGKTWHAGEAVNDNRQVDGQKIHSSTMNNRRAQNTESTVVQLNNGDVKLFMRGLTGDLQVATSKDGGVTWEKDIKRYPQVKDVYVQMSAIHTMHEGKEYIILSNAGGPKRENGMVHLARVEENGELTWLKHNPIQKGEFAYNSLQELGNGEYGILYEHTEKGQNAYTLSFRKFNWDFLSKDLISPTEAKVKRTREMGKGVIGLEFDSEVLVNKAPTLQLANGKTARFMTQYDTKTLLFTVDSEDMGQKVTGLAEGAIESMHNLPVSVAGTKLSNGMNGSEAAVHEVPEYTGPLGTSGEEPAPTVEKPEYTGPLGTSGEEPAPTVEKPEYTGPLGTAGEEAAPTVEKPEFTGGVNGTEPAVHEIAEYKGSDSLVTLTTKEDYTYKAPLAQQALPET

As for `CC(=O)N[C@H]1[C@H]([C@H](O)[C@H](O)CO)OC(C(=O)O)=C[C@@H]1O` [compound 6, 5-Acetamido-2,6-anhydro-3,5-dideoxy-D-glycero-D-galacto-non-2-enonic acid, reference compound], half-maximal inhibition (IC50) required 10 ± 0.2 µM.
